Consider 21 compounds from patent EP4825842A1, “DIVALENT BET DECOMPOSITION AGENT AND TARGETING MOLECULE-DRUG COMPLEX” (dated 2026).

The test system of assay [1] is SU-DHL-4 cells. The assay is described as follows: Test Example 1: in vitro cell survival inhibitory effect of compound using SU-DHL-4 cell line. Particulars: read-out: SU-DHL-4 IC50; 50% rate of inhibition of cell survival; 72 hours; Cell Counting Kit-8. Here is the method: SU-DHL-4 cells (Code No. ACC 495, Deutsche Sammlung von Mikroorga nismen und Zellkulturen GmbH; DSMZ) were cultured in RPMI1640 medium (Code No. 11875-093, Thermo Fisher Scientific Inc.) supplemented with heat-inactivated fetal bovine serum (FBS: Code No. 10099-148, Thermo Fisher Scientific Inc.) in an amount that attained a final concentration of 10 vol% and a penicillin/streptomycin solution (PS: Code No. 15140-122, Thermo Fisher Scientific Inc.) in an amount that attained a final concentration of 1 vol% at 37°C using a CO2 incubator (95% air, 5% CO2). The cells were passaged at intervals of twice per week so as to maintain a cell density of 1 × 10 ^6 cells/mL or less in a volume of 20 to 40 mL.
The cultured SU-DHL-4 cells were seeded at 2000 cells/well to a transparent 384-well plate (Code No. 781182, Greiner bio-one). The cells thus seeded were precultured at 37°C for 18 to 25 hours in a CO2 incubator. Subsequently, a 1, 0.1, or 0.01 mmol/L solution of a test compound in DMSO was prepared, and nine serial dilutions were prepared at a dilution factor of √10 so as to attain 200 times the final concentration using the RPMI1640 medium containing FBS and PS, and added in a volume of 1/200 to each well. The final concentration of DMSO was set to 0.1 vol% for this preparation. The cells thus supplemented with the test compound were cultured at 37°C for 72 hours in a CO2 incubator. Subsequently, 0.020 mL of a solution of Cell Counting Kit-8 (Code No. CK04, Dojindo Laboratories) diluted 2-fold or 4-fold with phosphate-buffered saline (PBS) was added to each well. Color reaction was performed at 37°C for 2 to 3 hours in a CO2 incubator, followed by absorbance measurement at a wavelength of 450 nm using SpectraMax 340PC (Molecular Devices, LLC).
On the technique in general: Formazan colour is commonly taken as a measure of viable cells.

Assay [2] has as its system HIP-009 cells. The assay can be described thus: Test Example 2: in vitro cell survival inhibitory effect of compound using nerve cell (HIP-009 cell). The note with it: for Nerve selectivity: calculated from HIP-009 IC50 and SU-DHL-4 IC50; for IC50: read-out: HIP-009 IC50, 50% rate of inhibition of cell survival, differentiated nerve cells, 7 days, total area occupied by the cells; for Degree of improvement (vs. comparative compound): neural selectivity of each compound / neural selectivity of the comparative compound. Here is the method: HIP-009 cells (Code No. 23002-009, Hippocampal Neural Stem Cells, Cosmo Bio Co., Ltd.) were cultured in Neural Stem Cell Growth Media (Code No. 21001-250, Cosmo Bio Co., Ltd.) at 37°C for 2 to 4 weeks using a CO2 incubator (95% air, 5% CO2) until confluency with half-volume media exchanges once or twice per week, then allowed to differentiate in Neuro Transition Media (Code No. 21003-250, Cosmo Bio Co., Ltd.), and seeded at 5000 to 10000 cells/0.04 mL/well to a 384-well plate (Code No. 781091, Greiner bio-one) using Neural Differentiation media (Code No. 210040250, Cosmo Bio Co., Ltd.). Neurites were elongated with half-volume media exchanges once or twice per week. Each medium was supplemented with supplements as described in the instruction and used after being allowed to pass through a 0.22 µm filter. The cells were used in evaluation 3 weeks or later after seeding to the 384-well plate by confirming the elongated neurites.
In order to detach the cells, Trypsin (Code No. 41004-100, Cosmo Bio Co., Ltd.) was added thereto, and the mixture was incubated at 37°C for 3 to 10 minutes using a CO2 incubator (95% air, 5% CO2). Cell detachment reaction was stopped by the addition of Trypsin Inhibitor (Code No. 41005-100, Cosmo Bio Co., Ltd.) in an equal amount.
The 384-well plate was subjected to the following operation before cell seeding. A poly(ethylenimine) solution (Code No. 03880-100ML, Sigma-Aldrich Co., LLC) was diluted with 1 × Borate Buffer (dilution of Pierce 20 × Borate Buffer (Code No. 28341, Thermo Fisher Scientific Inc.)) to prepare a 0.07% poly(ethylenimine) solution, 0.02 mL of which was added to each well and incubated at 37°C for 1 hour. Then, the plate was washed twice with 0.1 mL of PBS and once with 0.1 mL of Otsuka distilled water and left standing overnight for drying. 0.02 mL of Laminin from Engelbreth-Holm-Swarm murine sarcoma basement membrane (Code No. L2020-1MG, Sigma-Aldrich Co., LLC) diluted into 0.0033 mg/mL with PBS was added to each well and incubated at 37°C for 1 hour. Laminin was sucked out, then 0.1 mL of Otsuka distilled water was added to the plate until just before seeding, and the plate was left standing.
The cells of day 0 were photographed using Cell3iMager duos (SCREEN Holdings Co., Ltd.) before addition of a test compound, and the total area occupied by the cells was calculated. Nine serial dilutions of the test compound (10000 mmol/L solution in DMSO) were prepared at a dilution factor of √10 so as to attain 5 times the final concentration using the Neural Differentiation Media, and added in a volume of 1/5 to each well. The final concentration of DMSO was set to 0.1 vol% for this preparation. The cells thus supplemented with the test compound were cultured at 37°C for 7 days in a CO2 incubator (95% air, 5% CO2). The cells of day 7 were photographed using Cell3iMager duos, and the total area occupied by the cells was calculated. […] Rate of inhibition of cell survival(%) = 100−A/B × 100 [formula] • A: Total area of the cells of day 7 • B: Total area of the cells of day 0
The results were as shown in the column "HIP-009 IC50 (nmol/L)" in Table 33 below. The selectivity of each compound for nerve cells was calculated according to the following formula using the results thus obtained and the results of Test Example 1. [formula]
Degree of improvement (vs. the comparative compound) = Neural selectivity of each compound / Neural selectivity of the comparative compound

Usually IC50 stands for the concentration that inhibits the measured activity by half. On to `CCC(=O)N1c2ccccc2[C@H](Nc2ccc(NC(=O)CNC(=O)Nc3ccc(OCCc4cncc(C)c4)cc3)cc2)C[C@@H]1C`, for which the IC50 in assay [1] was found to be 0.38 nM. Besides, in assay [2], the Nerve selectivity was 760 and the IC50 was determined as 290 nM.
On to `CCC(=O)N1c2ccccc2[C@H](Nc2ccc(NC(=O)CNC(=O)Nc3ccc(OCCN4CCN(C(C)=O)[C@H](C)C4)cc3)cc2)C[C@@H]1C`, for which the IC50 in assay [1] turned out to be 0.14 nM. In addition, in assay [2], the Nerve selectivity was 3900, the “Degree of improvement (vs. comparative compound)” value stood at 30 and the IC50 stood at 520 nM.
With `CCC(=O)N1c2ccccc2[C@H](Nc2ccc(NC(=O)CNC(=O)Nc3ccc(OCCc4cccc(C(=O)NC)c4)cc3)cc2)C[C@@H]1C`, the IC50 in assay [1] turned out to be 0.042 nM. Besides, in assay [2], the Nerve selectivity is 1900, the “Degree of improvement (vs. comparative compound)” value was “④ 44” and the IC50 turned out to be 80 nM.
With `CCC(=O)N1c2ccccc2[C@H](Nc2ccc(NC(=O)CNC(=O)Nc3ccc(N[C@@H]4C[C@H](C)N(C(=O)CC)c5ccccc54)cc3)cc2)C[C@@H]1C`, in assay [1], the IC50 came to 0.098 nM. Besides, in assay [2], the Nerve selectivity is 130 and the IC50 is 13 nM.
In the same order, the values of `CCC(=O)N1c2ccccc2[C@H](Nc2ccc(NC(=O)CNC(=O)Nc3ccc(CCCN4CCC(=O)N(C)CC4)cc3)cc2)C[C@@H]1C` are 0.21 nM, 600 and 120 nM.
On to `CCC(=O)N1c2ccccc2[C@H](Nc2ccc(NC(=O)CNC(=O)Nc3ccc(OCCN4CC(=O)N(C)[C@H](C)C4)cc3)cc2)C[C@@H]1C`, for which, in assay [1], the IC50 turned out to be 0.42 nM. Moreover, in assay [2], the Nerve selectivity was 2000, the “Degree of improvement (vs. comparative compound)” value turned out to be 15 and the IC50 stood at 830 nM.
In the same order, the values of `CCC(=O)N1c2ccccc2[C@H](Nc2ccc(NC(=O)CNC(=O)Nc3ccc(OCCN4[C@H](C)CN(C(C)=O)C[C@H]4C)cc3)cc2)C[C@@H]1C` are 0.61 nM, 1600, 12 and 980 nM.
Take `CCC(=O)N1c2ccccc2[C@H](Nc2ccc(NC(=O)CNC(=O)Nc3ccc(OCCc4cccc(C(=O)N(C)C)c4)cc3)cc2)C[C@@H]1C`: the IC50 in assay [1] turned out to be 0.33 nM. In addition, in assay [2], the Nerve selectivity is 1100 and the half-inhibitory concentration (IC50) was 350 nM.
In the same order, the values of `CCC(=O)N1c2ccccc2[C@H](Nc2ccc(NC(=O)CNC(=O)Nc3ccc(OCCN4CCN(C(C)=O)C[C@H]4C)cc3)cc2)C[C@@H]1C` are 0.072 nM, 7400 and 530 nM.
In the same order, the values of `CCC(=O)N1c2ccccc2[C@H](Nc2ccc(NC(=O)CNC(=O)Nc3ccc(OCCN4CCCN(C(C)=O)CC4)cc3)cc2)C[C@@H]1C` are 0.27 nM, 2400 and 650 nM.
Turning to `CCC(=O)N1c2ccccc2[C@H](Nc2ccc(NC(=O)CNC(=O)Nc3ccc(NC(=O)CN4CCN(C)C(=O)[C@H]4C)cc3F)cc2)C[C@@H]1C`, the IC50 in assay [1] is 0.14 nM. Besides, in assay [2], the Nerve selectivity is 540, the “Degree of improvement (vs. comparative compound)” value is “④ 12” and the IC50 was 77 nM.
As to `CCC(=O)N1c2ccccc2[C@H](Nc2ccc(NC(=O)CNC(=O)Nc3ccc(OCCN4CCN5C(=O)CC[C@H]5C4)cc3F)cc2)C[C@@H]1C`, the IC50 in assay [1] stood at 0.033 nM. In assay [2], the Nerve selectivity is 2200 and the IC50 is 71 nM.
In the case of `CCC(=O)N1c2ccccc2[C@H](Nc2ccc(NC(=O)CNC(=O)Nc3ccc(OCCN4CCN(C)C(=O)[C@H]4C)cc3)c(Cl)c2)C[C@@H]1C` (relative stereo), the 50% inhibitory concentration (IC50) in assay [1] was 0.11 nM. Moreover, in assay [2], the Nerve selectivity is 550, the “Degree of improvement (vs. comparative compound)” value is recorded as “④ 13” and the IC50 was found to be 60 nM.
In the same order, the values of `CCC(=O)N1c2ccccc2[C@H](Nc2ccc(NC(=O)CNC(=O)Nc3ccc(OCCN4CC(=O)N(C)C[C@H]4C)cc3)cc2)C[C@@H]1C` are 0.94 nM, 2300, 18 and 2100 nM.
`CCC(=O)N1c2ccccc2[C@H](Nc2ccc(NC(=O)CNC(=O)Nc3ccc(OCCN4CCC(=O)N(C)CC4)cc3)cc2)C[C@@H]1C`: the IC50 in assay [1] amounted to 0.021 nM. In assay [2], the Nerve selectivity was 4500, the “Degree of improvement (vs. comparative compound)” value was 35 and the IC50 is 96 nM.
Consider `CCC(=O)N1c2ccccc2[C@H](Nc2ccc(NC(=O)CNC(=O)Nc3ccc(OCCN4CCN(C)C(=O)[C@H]4C)cc3OC)cc2)C[C@@H]1C`, for which the half-inhibitory concentration (IC50) in assay [1] amounted to 0.13 nM. For the same compound, in assay [2], the Nerve selectivity is 2000 and the IC50 came out at 270 nM.
Consider `CCC(=O)N1c2ccccc2[C@H](Nc2ccc(NC(=O)CNC(=O)Nc3ccc(OCCN4CCN(C(C)=O)C[C@@H]4C)cc3)cc2)C[C@@H]1C`, for which the concentration for half-maximal inhibition (IC50) in assay [1] stood at 0.081 nM. In assay [2], the Nerve selectivity was 6900, the “Degree of improvement (vs. comparative compound)” value was determined as 53 and the IC50 was 560 nM.
Consider `CCC(=O)N1c2ccccc2[C@H](Nc2ccc(NC(=O)CNC(=O)Nc3ccc(NC(=O)CN4CCC(=O)N(C)CC4)cc3)cc2)C[C@@H]1C`, for which the concentration for half-maximal inhibition (IC50) in assay [1] worked out at 0.31 nM. In addition, in assay [2], the Nerve selectivity was 910 and the IC50 worked out at 280 nM.
Turning to `CCC(=O)N1c2ccccc2[C@H](Nc2ccc(NC(=O)CNC(=O)Nc3ccc(OCCN4CC(=O)N(C)C[C@@H]4C)cc3)cc2)C[C@@H]1C`, the IC50 in assay [1] came to 0.19 nM. In assay [2], the Nerve selectivity is 4900, the “Degree of improvement (vs. comparative compound)” value is 38 and the IC50 amounted to 900 nM.
As for `CCC(=O)N1c2ccccc2[C@H](Nc2ccc(NC(=O)CNC(=O)Nc3ccc(CCCN4CCN(C)C(=O)[C@H]4C)cc3F)cc2)C[C@@H]1C`, the IC50 turned out to be 0.13 nM in assay [1] and 200 nM in assay [2]. Besides, in assay [2], the Nerve selectivity was 1700.
In the case of `CCC(=O)N1c2ccccc2[C@H](Nc2ccc(NC(=O)CNC(=O)Nc3ccc(OCCN4CCN(C(C)=O)CC4(C)C)cc3)cc2)C[C@@H]1C`, the IC50 in assay [1] worked out at 2 nM. In addition, in assay [2], the Nerve selectivity is 1100, the “Degree of improvement (vs. comparative compound)” value was found to be 8.5 and the 50% inhibitory concentration (IC50) came out at 2100 nM.
